Source: ChEMBL document CHEMBL3124799, “Discovery of 1,3,4-oxidiazole scaffold compounds as inhibitors of superoxide dismutase expression” (Bioorg Med Chem Lett, 2014)

The chains behind the UniProt entries cited, without tags or fusion partners. Where a name states a change or a piece, a line headed by the entry shows the natural chain unless it says otherwise.
UniProt P49841: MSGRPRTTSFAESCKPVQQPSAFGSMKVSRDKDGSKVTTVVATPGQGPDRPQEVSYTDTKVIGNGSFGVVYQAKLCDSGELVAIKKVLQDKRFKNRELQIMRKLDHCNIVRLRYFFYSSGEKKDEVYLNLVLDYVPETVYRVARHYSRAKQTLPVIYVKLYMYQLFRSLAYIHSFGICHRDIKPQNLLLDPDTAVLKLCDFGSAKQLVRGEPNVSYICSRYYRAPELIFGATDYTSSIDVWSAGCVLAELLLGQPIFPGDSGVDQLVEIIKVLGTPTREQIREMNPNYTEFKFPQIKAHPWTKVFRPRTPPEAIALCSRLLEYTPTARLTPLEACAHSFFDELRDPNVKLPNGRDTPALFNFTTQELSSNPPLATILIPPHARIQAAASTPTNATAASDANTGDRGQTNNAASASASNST

Molecular target: Glycogen synthase kinase-3 beta (Homo sapiens, UniProt P49841)
Experiment: Inhibition of GSK3beta (unknown origin)

IC50: 0.025 µM
SMILES: O=C1NC(=O)C(c2cn(CCCO)c3ncccc23)=C1c1cnccn1
